{"sequences": {"note": "By UniProt entry, the sequences of proteins in these tests, tags left out.", "UniProt P20309, whole entry": "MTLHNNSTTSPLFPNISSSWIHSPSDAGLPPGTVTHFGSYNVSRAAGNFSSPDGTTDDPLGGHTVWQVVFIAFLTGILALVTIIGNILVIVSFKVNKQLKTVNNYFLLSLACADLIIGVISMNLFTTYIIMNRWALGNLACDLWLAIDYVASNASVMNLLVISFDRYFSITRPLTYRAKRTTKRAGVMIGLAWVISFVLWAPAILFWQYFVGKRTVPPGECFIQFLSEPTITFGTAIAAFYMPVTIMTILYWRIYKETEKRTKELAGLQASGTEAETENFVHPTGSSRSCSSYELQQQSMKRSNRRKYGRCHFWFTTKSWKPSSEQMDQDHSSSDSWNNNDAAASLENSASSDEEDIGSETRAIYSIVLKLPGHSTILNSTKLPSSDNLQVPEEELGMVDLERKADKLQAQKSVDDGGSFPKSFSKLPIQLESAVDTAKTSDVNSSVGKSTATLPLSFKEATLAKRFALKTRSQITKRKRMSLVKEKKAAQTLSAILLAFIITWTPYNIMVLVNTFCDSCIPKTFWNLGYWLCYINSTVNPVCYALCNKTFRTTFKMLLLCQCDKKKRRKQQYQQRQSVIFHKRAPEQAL"}, "source": "patent US8207193B2", "about": "(priority 2006, dated 2012)", "target": "human muscarinic acetylcholine M3 receptor (M3-ACh) (Homo sapiens, UniProt P20309)"}
{"smiles": "O=C(O[C@H]1CN2CCC1CC2)C1(c2ccccc2)CCCCCC1", "note": "[listing 1 of 2 here]", "values": [{"measurement": "IC50", "setting": "read-out: M3 binding IC50, class symbols, Table 2", "result": "< 2", "unit": "nM"}]}
{"smiles": "O=C(O[C@H]1CN2CCC1CC2)C1(c2ccccc2)CCCCCC1", "note": "[listing 2 of 2 here]", "values": [{"measurement": "pIC50 of cycloheptyl (C7) compound", "setting": "M3, Table 3, C7", "result": "10.2 (Ex. 1)"}, {"measurement": "pIC50", "setting": "[3H]NMS 0.2 nM, CHO-K1 membranes, Table 1", "result": 10.2}]}
{"smiles": "O=C(O[C@H]1CN2CCC1CC2)C1(c2ccccc2)CCCCC1", "values": [{"measurement": "pIC50 of comparative compounds containing a cyclohexyl (C6) ring in place of cycloheptyl (C7)", "setting": "M3, Table 3, C6", "result": "8.9 (Comp Ex. 4)"}]}
{"smiles": "O=C(O[C@H]1CN2CCC1CC2)C1(c2ccccc2)CCCC1", "values": [{"measurement": "pIC50 of comparative compounds containing a cyclopentyl (C5) ring in place of cycloheptyl (C7)", "setting": "M3, Table 3, C5", "result": "8.7 (Comp Ex. 1)"}]}
